Measurements as given in patent US4357341A, “Specific irreversible antagonism of histamine receptors by photoaffinity actuated compounds” (priority 1981, dated 1982).

By UniProt entry, the sequences of proteins in these tests, tags left out.
UniProt P31389, whole entry: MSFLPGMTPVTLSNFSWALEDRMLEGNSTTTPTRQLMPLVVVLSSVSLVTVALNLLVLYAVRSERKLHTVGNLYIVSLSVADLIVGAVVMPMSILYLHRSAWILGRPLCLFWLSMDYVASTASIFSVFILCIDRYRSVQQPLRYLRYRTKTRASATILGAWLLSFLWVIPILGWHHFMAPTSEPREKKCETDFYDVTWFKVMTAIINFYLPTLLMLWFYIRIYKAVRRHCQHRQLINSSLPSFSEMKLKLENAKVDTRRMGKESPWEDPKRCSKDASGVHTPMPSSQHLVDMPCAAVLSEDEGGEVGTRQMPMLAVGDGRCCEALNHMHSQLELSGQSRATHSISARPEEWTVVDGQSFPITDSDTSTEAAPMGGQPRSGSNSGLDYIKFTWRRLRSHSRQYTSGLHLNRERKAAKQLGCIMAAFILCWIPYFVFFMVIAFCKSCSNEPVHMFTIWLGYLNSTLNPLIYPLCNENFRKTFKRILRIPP

Biological target: histamine receptor (H1), isolated guinea pig vas deferens (Cavia porcellus, UniProt P31389)
Settings: cimetidine present during photolysis; concentration not given
Method: Adult, albino guinea pigs (250-350 g; Hilltop Lab Animals, Scottdale, PA) were killed by a blow to the head. Vasa deferentia were removed, desheathed and mounted in conventional apparatus for the measurement of isometric contractile responses. Each tissue preparation was bathed in a separate glass, water-jacketed organ chamber containing modified Krebs-Henseleit solution (37° C.) for one hour prior to the beginning of the experiment. The tissues were washed every 15 minutes. Resting tension was 200 mg. Agonist agents were added to the bath with stepwise increases in concentration. The agonists were added at 10 minute intervals and the tissues were exposed to each concentration for 2 minutes; the tissues were washed twice with agonist-free Krebs-Henseleit solution, at 5 minute intervals, between agonist additions.
Effect of AAH after irradiation in the presence of histamine receptor ligands. […] AAH was then added to the test tissue, leaving the control exposed only to ligand, and after a 5-minute incubation, both the test and control tissues were irradiated for 5 minutes. Both tissues were washed twice with fresh Krebs-Henseleit solution to remove all agents, and concentration-response determinations were performed 10 minutes after irradiation.

Q: How did the “protection from the effect of photolyzed AAH” value turn out when `CN/C(=N/CCSCc1nc[nH]c1C)NC#N` [cimetidine] was run?
A: weakly protective
